Results published in US20240360179A1, “STAPLED PEPTIDES AND METHODS THEREOF” (FOG PHARMACEUTICALS, INC., priority 2021, published 2024).
Read-outs that look alike come from different tables or passages of the source.

The chains behind the UniProt entries cited, without tags or fusion partners. Residues count along the entry.
UniProt P35222, whole entry: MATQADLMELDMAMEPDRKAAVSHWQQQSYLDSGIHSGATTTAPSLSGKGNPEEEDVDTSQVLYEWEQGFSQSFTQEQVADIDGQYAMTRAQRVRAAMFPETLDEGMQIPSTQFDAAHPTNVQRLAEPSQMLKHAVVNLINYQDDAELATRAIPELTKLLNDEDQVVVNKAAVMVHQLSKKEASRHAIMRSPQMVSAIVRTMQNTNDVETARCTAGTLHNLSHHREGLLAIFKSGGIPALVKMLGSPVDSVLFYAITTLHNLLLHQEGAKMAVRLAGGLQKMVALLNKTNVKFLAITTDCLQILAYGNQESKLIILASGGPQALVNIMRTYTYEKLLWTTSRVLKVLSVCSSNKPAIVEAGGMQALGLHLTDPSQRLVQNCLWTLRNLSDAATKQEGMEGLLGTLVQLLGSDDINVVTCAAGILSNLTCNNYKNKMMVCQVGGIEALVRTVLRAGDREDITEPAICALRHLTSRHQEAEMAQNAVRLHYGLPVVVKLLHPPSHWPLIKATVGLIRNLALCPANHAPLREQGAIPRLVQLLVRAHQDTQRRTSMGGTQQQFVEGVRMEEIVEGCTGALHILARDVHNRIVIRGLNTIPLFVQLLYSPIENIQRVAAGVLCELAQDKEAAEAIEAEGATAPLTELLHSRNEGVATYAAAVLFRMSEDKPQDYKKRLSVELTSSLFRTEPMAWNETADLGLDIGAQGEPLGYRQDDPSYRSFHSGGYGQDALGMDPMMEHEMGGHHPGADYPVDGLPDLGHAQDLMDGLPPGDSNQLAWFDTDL
UniProt P35222, 2-781: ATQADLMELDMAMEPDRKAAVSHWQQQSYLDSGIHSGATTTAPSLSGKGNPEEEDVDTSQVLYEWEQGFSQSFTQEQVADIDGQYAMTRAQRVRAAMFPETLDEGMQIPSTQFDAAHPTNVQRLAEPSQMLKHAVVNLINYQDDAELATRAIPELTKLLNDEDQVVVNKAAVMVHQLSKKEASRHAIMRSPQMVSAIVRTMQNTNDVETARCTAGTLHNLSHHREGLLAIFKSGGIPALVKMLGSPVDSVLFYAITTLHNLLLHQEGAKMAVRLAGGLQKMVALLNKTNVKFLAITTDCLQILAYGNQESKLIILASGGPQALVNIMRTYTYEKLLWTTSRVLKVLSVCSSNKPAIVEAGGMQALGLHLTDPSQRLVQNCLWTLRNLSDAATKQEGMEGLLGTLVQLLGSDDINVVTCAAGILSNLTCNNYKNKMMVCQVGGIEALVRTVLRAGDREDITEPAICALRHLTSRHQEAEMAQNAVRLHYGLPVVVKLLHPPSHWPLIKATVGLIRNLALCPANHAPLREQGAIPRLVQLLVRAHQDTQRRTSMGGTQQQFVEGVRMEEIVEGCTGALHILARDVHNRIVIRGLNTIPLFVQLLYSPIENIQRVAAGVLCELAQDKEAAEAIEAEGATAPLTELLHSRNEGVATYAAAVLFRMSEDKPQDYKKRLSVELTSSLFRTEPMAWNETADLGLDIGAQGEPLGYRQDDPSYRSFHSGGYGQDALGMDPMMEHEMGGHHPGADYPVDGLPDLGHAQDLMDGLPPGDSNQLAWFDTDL

Experiments:
[1] = biological target: T1, full-length B-Catenin (Uniprot ID P35222) (Homo sapiens, UniProt P35222); assay type: binding
T1 construct: 10 nM full-length B-Catenin (Uniprot ID P35222)

[2] = biological target: TCF/LEF luciferase reporter in DLD1 cells (Homo sapiens, UniProt P35222); experiment: TCF reporter assay in DLD1 cells (4% or 20% FBS); assay type: cell-based
[3] = biological target: beta-catenin/TCF4 interaction (Homo sapiens, UniProt P35222); assay type: cell-based; parameters: host or cells: HEK293; details: read-out: NanoBRET Abs IC50
[4] = competition fluorescence polarization, read-out: beta-Catenin FP IC50
[5] = read-out: DLD1 4% Abs IC50, DLD1 reporter, 4% FBS
[6] = read-out: beta-catenin TCF4 competition FP assay IC50

Row | Substance | IC50 [1, 4] [nM] | IC50 [3] [nM] | also measured
1 | Ac-S6-Val-Asp-Npg-B5-Asp-3COOHF-Aib-Ala-Phe-Lys*3-PyrS2-Phe-34ClF-GlnR*3-NH2 [I-1464] | < 50 |  | IC50 [2, 5]: 1000 to 5000 nM
2 | Ac-PL3-Asp-DipA-B5-Asp-3COOHF-Ala-Ala-Phe-Lys*3-PyrS2-3Thi-34ClF-GlnR*3-Ala-Ala-[C18-PEG8]-Lys-NH2-NH2 [I-1792] | > 1000 |  | IC50 [2, 5]: ≤ 1000 nM
3 | Ac-PL3-Asp-DipA-B5-Asp-3COOHF-Ala-Ala-Phe-Lys*3-PyrS2-3Thi-34ClF-GlnR*3-Ala-Ala-[Oct-dPEG2]-Lys-NH2-NH2 [I-1789] | < 50 |  | IC50 [2, 5]: 1000 to 5000 nM
4 | Ac-PL3-Asp-Npg-B5-Asp-3COOHF-Aib-Ala-Phe-[mXyl]Cys-PyrS2-3Thi-BztA-Cys-Ala-NH2 [I-1272] | < 50 |  | IC50 [1, 6]: 15 nM; IC50 ([2]; read-out: beta-catenin TCF4 DLD1 cell reporter assay IC50): 5500 nM
5 | Ac-PL3-Asp-Npg-B5-Asp-3COOHF-Aib-Ala-Phe-[mPyr]Cys-PyrS2-3Thi-BztA-Pen-Ala-NH2 [I-1454] | < 50 |  | IC50 [2, 5]: 1000 to 5000 nM
6 | Ac-S6-Ala-Asp-Npg-B5-Asp-3COOHF-Aib-Ala-Phe-Lys*3-PyrS2-Phe-34ClF-GlnR*3-NH2 [I-1468] | < 50 |  | IC50 [2, 5]: > 5000 nM
7 | Ac-PL3-Asp-Npg-B5-Asp-3COOHF-Aib-Ala-Phe-[m5Meb]Cys-PyrS2-3Thi-BztA-Cys-Ala-NH2 [I-1365] | < 50 |  | IC50 [1, 6]: 42 nM; IC50 [2, 5]: > 5000 nM
8 | Ac-S6-Ala-Asp-Npg-B5-Asp-3COOHF-Aib-Ala-Phe-Leu-[4Abu]DapAc7-3thi-BztA-Ala-GlnR*3-NH2 [I-1300] | 50 to 200 |  | IC50 [2, 5]: > 5000 nM
9 | Ac-PL3-Asp-Npg-B5-Asp-3COOHF-Aib-Ala-Phe-Lys*3-PyrS2-3Thi-BztA-GlnR*3-Aib-Ser-[mPEG8]-Lys-NH2 [I-1822] | < 50 |  | IC50 [2, 5]: 1000 to 5000 nM
10 | Ac-PL3-Asp-DipA-B5-Asp-3COOHF-Ala-Ala-Phe-Lys*3-PyrS2-3Thi-34ClF-GlnR*3-Ala-Ala-[C18-dPEG2]-Lys-NH2-NH2 [I-1791] | > 1000 |  | IC50 [2, 5]: ≤ 1000 nM
11 | 3Py Ac-PL3-Asp-Npg-B5-Asp-3COOHF-Aib-Ala-Phe-Lys*3-PyrS2-3Thi-BztA-GlnR*3-Ala-NH2 [I-1067] | < 50 | > 10000 | 
12 | Ac-PL3-Asp-Cba-B5-Asp-3COOHF-nLeu-Ala-Phe-Lys*3-PyrS2-3Thi-BztA-GlnR*3-Ala-NH2 [I-990] | < 50 | 3000 to 10000 | 
13 | Ac-PL3-Asp-Npg-B5-Asp-TfeGA-Ala-Ala-Phe-Lys*3-PyrS2-Phe-BztA-GlnR*3-Ala-NH2 [I-896] | < 50 | 3000 to 10000 | 
14 | Ac-PL3-Asp-Npg-B5-Asp-3COOHF-Aib-Ala-Phe-Lys*3-PyrS2-3Thi-BztA-GlnR*3-Ala-Ala-Ala-Leu-NH2 [I-807] | < 50 | 3000 to 10000 | 
15 | Ac-PL3-Asp-DipA-B5-Asp-3COOHF-Ala-Ala-Phe-Lys*3-PyrS2-3Thi-34ClF-GlnR*3-Ala-Ala-Ala-[mPEG8]-Lys [I-1705] | < 50 | 3000 to 10000 | 
16 | Ac-PL3-Asp-Npg-B5-Asp-3COOHF-Aib-Ala-Phe-Lys*3-PyrS2-hnLeu-SbMeBzta-GlnR*3-Ala-NH2 [I-774] | 200 to 750 | > 10000 | 
17 | Ac-PL3-Asp-DipA-B5-Asp-3COOHF-CyLeu-Ala-Phe-Lys*3-PyrS2-2F3MeF-34ClF-GlnR*3-Leu-NH2 [I-1769] | 50 to 200 | > 10000 | 
18 | Ac-PL3-Asp-Npg-B5-Asp-3COOHF-Aib-Ala-Phe-Lys*3-PyrS2-3Thi-BztA-GlnR*3-Npg-NH2 [I-718] | < 50 | 3000 to 10000 | 
19 | Ac-PL3-Asp-Npg-B5-Asp-3COOHF-Ala-Ala-Phe-Lys*3-PyrS2-Phe-34ClF-GlnR*3-Leu-Ser-NH2 [I-840] | < 50 | 3000 to 10000 | 
20 | Ac-S5-TfeGA-Asp-DipA-B5-Asp-3COOHF-Aib-Ala-Phe-Lys*3-PyrS1-Phe-34ClF-GlnR*3-NH2 [I-1805] | < 50 | 3000 to 10000 | 
21 | Ac-PL3-Asp-Npg-B5-Asp-3COOHF-Aib-Ala-Phe-Lys*3-PyrS2-3Thi-BztA-GlnR*3-Asn-NH2 [I-723] | < 50 | 1500 to 3000 | 
22 | EtHNCO-PL3-Asp-Npg-B5-Asp-3COOHF-Aib-Ala-Phe-Lys*3-PyrS2-3Thi-BztA-GlnR*3-Ala-NH2 [I-802] | < 50 | 3000 to 10000 | 
23 | Ac-PL3-Asp-Npg-B5-Asp-3COOHF-Val-nLeu-Phe-Lys*3-PyrS2-3Thi-BztA-GlnR*3-Ala-NH2 [I-1019] | 50 to 200 | > 10000 | 

Row | Substance | IC50 [1, 4] [nM] | IC50 [3] [nM] | also measured
24 | Ac-PL3-Asp-Ile-B5-Asp-3COOHF-Aib-Ala-Phe-sAla*3-PyrS2-Phe-34ClF-TriAzLys*3-NH2 [I-1857] | < 50 | 3000 to 10000 | 
25 | MeOPr-PL3-Asp-Npg-B5-Asp-3COOHF-Aib-Ala-Phe-Lys*3-PyrS2-3Thi-BztA-GlnR*3-Ala-NH2 [I-750] | < 50 | 1500 to 3000 | 
26 | Ac-PL3-Asp-Npg-B5-Asp-3COOHF-Aib-Ala-Phe-TriAzLys*3-S3iPrPyrSc7-3Thi-BztA-sAla*3-Ala-NH2 [I-1813] |  | 3000 to 10000 | IC50 ([1]; read-out: beta-Catenin FP IC50): < 50 nM
27 | Ac-PL3-Asp-DipA-B5-Asp-3COOHF-Aib-aThr-Phe-Lys*3-PyrS2-3Thi-BztA-GlnR*3-Ala-NH2 [I-1006] | < 50 | > 10000 | 
28 | Ac-PL3-Asp-Npg-B5-Asp-3COOHF-Ala-Ala-Phe-Lys*3-PyrS2-2F3MeF-BztA-GlnR*3-Val-Ser-NH2 [I-822] | < 50 | 1500 to 3000 | 
29 | Ac-PL3-Asp-Npg-B5-Asp-3COOHF-CyLeu-aThr-Phe-Lys*3-PyrS2-3Thi-BztA-GlnR*3-Ala-NH2 [I-1020] | < 50 | 3000 to 10000 | 
30 | Ac-PL3-Asp-Ile-B5-Asp-3COOHF-GlnBDA*3-Ala-Phe-Ala-PyrS2-Phe-34ClF-GlnR*3-NH2 [I-1797] | < 50 | > 10000 | 
31 | Ac-PL3-Asp-Leu-B5-Asp-3COOHF-Ala-Ala-Phe-DGlnR*3-PyrS2-3Thi-BztA-Lys*3-NH2 [I-14] | < 50 | 3000 to 10000 | 
32 | Ac-PL3-Asp-Cba-B5-Asp-3COOHF-CyLeu-Ala-Phe-Lys*3-PyrS2-3Thi-BztA-GlnR*3-Ala-NH2 [I-733] | < 50 | < 1500 | 
33 | Ac-PL3-Asp-Chg-B5-Asp-3COOHF-CyhLeu-Ala-Phe-Lys*3-PyrS2-3Thi-BztA-GlnR*3-Ala-NH2 [I-850] | < 50 | 1500 to 3000 | 
34 | Ac-PL3-Asp-DipA-B5-Asp-3COOHF-CyLeu-Ala-Phe-Lys*3-PyrS2-3Thi-BztA-GlnR*3-Ala-NH2 [I-740] | < 50 | < 1500 | 
35 | Ac-PL3-Asp-Npg-B5-Asp-3COOHF-Aib-Ala-Phe-Lys*3-PyrS2-2F3MeF-34ClF-GlnR*3-Pro-NH2 [I-864] | < 50 | 3000 to 10000 | 
36 | Ac-PL3-Asp-Npg-B5-Asp-3COOHF-Aib-Ala-Phe-Lys*3-PyrS2-3Thi-BztA-GlnR*3-Ala-Ala-Ala-NH2 [I-782] | < 50 | 1500 to 3000 | 
37 | Ac-PL3-Asp-DipA-B5-Asp-3COOHF-nLeu-Ala-Phe-Lys*3-PyrS2-3Thi-BztA-GlnR*3-Ala-NH2 [I-986] | < 50 | < 1500 | 
38 | Ac-PL3-Asp-DipA-B5-Asp-3COOHF-CyLeu-Ala-Phe-Lys*3-PyrS2-2F3MeF-BztA-GlnR*3-Ser-NH2 [I-1772] | < 50 | > 10000 | 
39 | Ac-PL3-Asp-Cha-B5-Asp-3COOHF-Phe-Ala-Phe-Lys*3-PyrS2-3Thi-BztA-GlnR*3-Ala-NH2 [I-841] | < 50 | 1500 to 3000 | 
40 | Ac-PL3-Asp-Npg-B5-Asp-3COOHF-Gln-Ala-Phe-Lys*3-PyrS2-3Thi-BztA-GlnR*3-Ala-NH2 [I-392] | < 50 |  | IC50 ([3]; absolute IC50): 3000 to 10000 nM
41 | Ac-PL3-Asp-Npg-B5-Asp-3COOHF-Aib-Ala-Phe-Lys*3-PyrS2-3Thi-BztA-GlnR*3-Leu-Ser-NH2 [I-785] | < 50 | 1500 to 3000 | 
42 | Ac-PL3-Asp-Npg-B5-Asp-3COOHF-Aib-Ala-Phe-Lys*3-PyrS2-3Thi-BztA-GlnR*3-Val-Thr-Ala-NH2 [I-509] | < 50 |  | IC50 ([3]; absolute IC50): 1500 to 3000 nM
43 | Ac-S5-Phe-Asp-Npg-B5-Asp-3COOHF-Aib-Ala-Phe-Lys*3-PyrS2-3Thi-BztA-GlnR*3-Ala-NH2 [I-1148] | < 50 | > 10000 | 
44 | Ac-PL3-Asp-DipA-B5-Asp-3COOHF-Ala-Ala-Phe-Lys*3-PyrS2-3Thi-34ClF-GlnR*3-Ala-Ala-[mPEG37]-Lys-NH2 [I-1704] | < 50 | > 10000 | 
45 | Ac-PL3-Asp-Npg-B5-Asp-3COOHF-Aib-Ala-Phe-Lys*3-PyrS2-3Thi-BztA-GlnR*3-Val-Asp-Leu-NH2 [I-513] | < 50 |  | IC50 ([3]; absolute IC50): 3000 to 10000 nM
